Results reported in patent US7348313B2, “Method for targeting cells involved in sclerotic and/or fibrotic diseases” (Stichting Voor de Technische Wetenschappen, priority 1998, dated 2008).

Assays:
[1] = tested on: human liver slices; assay: Binding and uptake of radiolabeled neo-glycoproteins in human liver slices; settings: 125I-labeled; slices from patients with normal liver function and cirrhotic patients; within one hour after co-incubation
[2] = Organ distribution of radiolabeled (125I) HSA-cyclic peptide conjugates after intravenous administration; type: in vivo, rat; settings: normal rats and rats with liver fibrosis (3 weeks after bile duct ligation); 10 minutes after i.v. 125I protein; FIG. 1 and 2
Experimental: (§1) FIG. 1: Organ distribution of human serum albumin (HSA) conjugated with 10 to 12 cyclic oligopeptides recognizing the PDGF-receptor in normal rats [figure A] and in rats with liver fibrosis induced by bile duct ligation (3 weeks after the operation) [fig.B]. Figure C represents the organ distribution of unmodified HSA. Organs were removed 10 minutes after intravenous administration of radiolabeled (^125I) protein and analyzed using a gamma-counter. The results are expressed as the mean±SD (n=3 per group).
as §1, with “2:” for “1:”, “collagen type VI-receptor” for “PDGF-receptor”, “[fig. B].” for “[fig.B]. Figure C represents the organ distribution of unmodified HSA.”

[3] = tested on: PDGF-receptor; assay: In vitro displacement of radiolabeled PDGF-BB from its receptor upon 3T3-fibroblasts; type: binding; settings: FIG. 4
Text: FIG. 4: In vitro displacement of radiolabeled PDGF-BB from its receptor upon 3T3-fibroblasts by HSA-PDGF receptor-binding peptide conjugates (pPB-HSA, closed blocks), HSA (open blocks) or uncoupled PDGF-receptor binding peptides (pPB, open circles).

[4] = rat, in vivo, iv
[5] = tested on: HSC; assay: HSC proliferation in rats with liver fibrosis induced by bile duct ligation; type: in vivo, rat; settings: bile duct ligated rats, conjugate given 1, 3 and 5 days after ligation, read at day 7; compared to no treatment or PDTC alone
Experimental: Pyrrolidine-dithiocarbamate (PDTC, which is an inhibitor of the transcription factor NF-kappaB) was attached to M6P28-HSA by coupling the carboxylic groups of PDTC to lysine groups of HSA according to standard procedures. This compound was administered to rats with liverfibrosis induced by bile duct ligation.

[6] = tested on: non-parenchymal cells of the liver; assay: Histochemical examination of liver and bone; double staining with anti-HSA and cell marker antibodies after i.v. HSA-peptide conjugate; type: in vivo, rat; settings: 10 mg/kg b.w. i.v.
Experimental: (§2) Normal rats and rats with liver fibrosis (3 weeks after bile duct ligation) received an intravenous injection of 10 mg/kg b.w. PDGF receptor-binding peptides conjugated with HSA. Based upon the results of the organ distribution studies with radiolabeled conjugates (FIG. 1), rats were sacrificed after ten minutes and samples of the liver and bone (from ribs, front paw, rear paw and the back) were removed for histochemical examination. […] Upon cryostat sections of these livers double stainings were performed with anti-HSA antibodies and antibodies against Kupffer cells (ED1), endothelial cells (RECA-1), myofibroblasts (anti-actin antibodies) or hepatic stellate cells (desmin and GFAP antibodies). Subsequently, the number of double positive cells (HSA+ and cell marker+) were counted and related to the total number of HSA positive cells in the same area.
as §2, with “b.w. collagen VI” for “b.w. PDGF”, “(FIG. 2),” for “(FIG. 1),”
FIG. 3: Intrahepatic distribution of HSA modified with 10-12 collagen type VI-receptor binding peptides in fibrotic rats (3 weeks after bile duct ligation). […] A]. […] B].

[7] = rats, sacrificed after ten minutes, liver cryostat sections

With “HSA: unmodified human serum albumin [reference compound]” the “intrahepatic accumulation in human liver slices” value [1] was “not taken up”, the organ distribution [2] was “remains in the blood” and the “displacement of radiolabeled PDGF-BB from its receptor” value [3] was “not by native HSA”.

With “M6P28-HSA: neoglycoprotein: mannose 6-phosphate covalently coupled to human serum albumin, x=28” the liver accumulation [4] was 59±9 % of the dose.

In the case of “PDTC-M6P28-HSA: Pyrrolidine-dithiocarbamate (PDTC) attached to M6P28-HSA via carboxylic groups of PDTC and lysine groups of HSA”, the “proliferation of HSC in the parenchymal area” value [5] is reported as “less proliferation of HSC”.

With “pPB-HSA: HSA modified with PDGF receptor-recognising cyclic peptides, 10 to 12 per HSA” the organ distribution [2] was “accumulation of modified HSA in livers of normal and diseased rats”, the “staining in tissue samples (histochemical)” value ([6]; normal and fibrotic rats, ten minutes) was “abundant staining” and the “accumulation in bone samples (histochemical)” value ([6]; normal and fibrotic rats, ten minutes, ribs, front paw, rear paw, back) was “No accumulation”. For the same substance, the “% EC (relative accumulation; HSA-positive cells double-positive for EC marker HIS 52)” value [6, 7] was 16 ± 6%, the “% HSC (relative accumulation; HSA-positive cells double-positive for HSC marker desmine)” value [6, 7] was 72 ± 18% and the “% KC (relative accumulation; HSA-positive cells double-positive for KC marker ED2)” value [6, 7] was 11 ± 6%. For the same substance, the “displacement of radiolabeled PDGF-BB from its receptor” value [3] was “strong inhibition of binding of native PDGF to fibroblasts”.
